Laboratory results published in patent publication US11285169B2, “Methods for modulating chemotherapeutic cytotoxicity” (The United States of America, as represented by the …, priority 2013, dated 2022).

Experiments:
WT Jurkat cells [1] = settings: 48 hours, 10^-9 to 10^-4 M, CellTiter-Glo
[2] = system: CD47 deficient (CD47 KO) Jurkat T cells; settings: for Maximal Response CD47 KO (RLU): CD47 KO Jurkat T cells, 48 hours, 10^-9 to 10^-4 M, CellTiter-Glo
[3] = system: CD47 deficient (CD47 KO) Jurkat T cells; experiment: cells; settings: Homo sapiens, 48 h, read-out: AC50 (μM) CD47 KO
WT Jurkat cells [4] = experiment: cells; settings: Homo sapiens, 48 h, read-out: AC50 (μM) WT

SMILES	Maximal Response WT (RLU) (WT Jurkat cells [1])	Maximal Response CD47 KO (RLU) [2] [RLU]	Δ LogAC50 CD47KO-WT [2]	AC50 [3] [µM]	AC50 (WT Jurkat cells [4]) [µM]
FC(F)(F)c1ccc(/C=C/c2nc(COc3ccc(CCCCn4ccnn4)cc3)co2)cc1 [Mubritinib]	17.243				
CS(=O)(=O)Nc1ccc([N+](=O)[O-])cc1Oc1ccccc1 [Nimesulide]	17.364	82.485			
NC(=O)c1cccc2cn(-c3ccc([C@@H]4CCCNC4)cc3)nc12 [Niraparib]	48.69	81.286			
NNCCc1ccccc1 [Phenelzine]	13.556	51.795			
CCCc1cc(=O)[nH]c(=S)[nH]1 [Propylthiouracil]	82.824				
Cn1cc(-c2cnn3c(N)c(Br)c([C@@H]4CCCNC4)nc23)cn1 [SCH-900776]			0.6	1.48	0.372
